How the values were obtained:
[1] = target: T1, Ceramide glucosyltransferase (Homo sapiens, UniProt Q16739); experiment: Inhibition of Glucosylceramide synthase (unknown origin) using C6-ceramide and UDP-glucose as substrate preincubated for 30 mins followed by substrate addition and measured after 2 hrs by UDP-Glo luminometer analysis
T1 sequence (Q16739 whole entry): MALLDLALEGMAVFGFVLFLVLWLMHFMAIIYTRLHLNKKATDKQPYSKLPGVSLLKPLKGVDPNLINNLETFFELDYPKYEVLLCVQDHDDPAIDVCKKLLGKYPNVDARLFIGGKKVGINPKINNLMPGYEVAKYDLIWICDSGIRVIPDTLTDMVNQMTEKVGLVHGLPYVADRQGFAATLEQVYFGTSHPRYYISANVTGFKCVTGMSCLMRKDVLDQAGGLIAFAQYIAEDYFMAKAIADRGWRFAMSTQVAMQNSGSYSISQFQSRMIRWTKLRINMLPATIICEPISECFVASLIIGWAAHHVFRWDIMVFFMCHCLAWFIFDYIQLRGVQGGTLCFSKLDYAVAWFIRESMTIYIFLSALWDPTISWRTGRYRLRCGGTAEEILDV

[2] = target: T1, Ceramide glucosyltransferase; experiment: Inhibition of GCS in human fibroblast; assay type: cell-based

`CC(C)(NC(=O)O[C@@H]1CN2CCC1CC2)c1csc(-c2ccc(F)cc2)n1` gave an IC50 [1] of 0.044 µM and an IC50 [2] of 0.012 µM.

Reference: ChEMBL document CHEMBL5223177, “Pyrazole Ureas as Low Dose, CNS Penetrant Glucosylceramide Synthase Inhibitors for the Treatment of Parkinson's Disease” (ACS Med Chem Lett, 2023)
